Values of other authors, collected in patent US9937165B2, “Pharmacological chaperones for treating obesity” (Amicus Therapeutics, Inc., priority 2005, dated 2018).

By UniProt entry, the sequences of proteins in these tests, tags left out.
UniProt P32245, whole entry: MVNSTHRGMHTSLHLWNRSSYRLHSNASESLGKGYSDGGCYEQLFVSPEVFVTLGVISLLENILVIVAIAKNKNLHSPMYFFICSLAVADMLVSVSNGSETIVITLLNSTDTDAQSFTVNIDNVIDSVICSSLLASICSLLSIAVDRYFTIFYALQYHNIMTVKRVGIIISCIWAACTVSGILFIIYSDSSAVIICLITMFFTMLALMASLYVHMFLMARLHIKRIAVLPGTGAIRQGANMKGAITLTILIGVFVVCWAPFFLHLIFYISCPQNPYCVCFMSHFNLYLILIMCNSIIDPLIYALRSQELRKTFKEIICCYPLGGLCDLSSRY

Molecular target: MC4R (Homo sapiens, UniProt P32245)
Conditions: cited from earlier work

O=C(N[C@H](Cc1ccc(Cl)cc1)C(=O)N1CCC(Cn2cncn2)(C2CCCCC2)CC1)[C@H]1Cc2ccccc2CN1 [Compound 1, THIQ]
MC4R Activity Emax: 97%
